# Measured values as given in US20200352886A1, “TREATMENT OF PAIN WITH TOPICAL DICLOFENAC” (priority 2009, published 2020).
# System: subjects with primary osteoarthritis of the knee
# Assay: 12-week randomized controlled trial: safety (adverse events, laboratory parameters, ocular examination)
# Assay type: in vivo, human
# Conditions: normal at baseline to above upper limit of normal
# Protocol: Study Design: Eligible subjects were stratified by the investigator at baseline into stratum 1 (no pain and normal radiological examination in the non-study knee) or stratum 2 (pain and/or abnormal radiological examination in the non-study knee), and then randomized into the trial by receiving the next numbered study kit at that clinic for that stratum. […] Subjects applied 40 drops of solution (approximately 1.2 mL) around the entire circumference of the study knee, without massage, 4 times daily, and took one study tablet daily for up to 12 weeks.
# Each subject completed a full efficacy assessment questionnaire after randomization at baseline and at 4, 8 and 12 weeks, or at drop out. […] The POHA asked the question, “Considering all the ways your osteoarthritic (study) knee and its treatment affect you, including both positive and negative effects, how would you rate your overall state of health in the past 48 hours?” Secondary efficacy variables were WOMAC stiffness and patient global assessment (“PGA”) of knee osteoarthritis. The PGA asked the question, “How has the osteoarthritis in your study joint been over the last 48 hours?” The POHA and PGA were scored on a 5-point Likert scale. There was no assessment of the non-treated knee. […] Adverse events were categorized according to Coding Symbols for Thesaurus of Adverse Reaction Terms (“COSTART”). […]
compound,measurement,value
"O=C(O)Cc1ccccc1Nc1c(Cl)cccc1Cl [ODiclo, diclofenac]","AST, normal to abnormal",27 (19.6) N (%)
